Measured values published in PMC8835904.

Chains of the proteins cited; added tags and fusions are not shown. Residues count along the entry.
UniProt P06756, 31-1048, chain 1 of 2: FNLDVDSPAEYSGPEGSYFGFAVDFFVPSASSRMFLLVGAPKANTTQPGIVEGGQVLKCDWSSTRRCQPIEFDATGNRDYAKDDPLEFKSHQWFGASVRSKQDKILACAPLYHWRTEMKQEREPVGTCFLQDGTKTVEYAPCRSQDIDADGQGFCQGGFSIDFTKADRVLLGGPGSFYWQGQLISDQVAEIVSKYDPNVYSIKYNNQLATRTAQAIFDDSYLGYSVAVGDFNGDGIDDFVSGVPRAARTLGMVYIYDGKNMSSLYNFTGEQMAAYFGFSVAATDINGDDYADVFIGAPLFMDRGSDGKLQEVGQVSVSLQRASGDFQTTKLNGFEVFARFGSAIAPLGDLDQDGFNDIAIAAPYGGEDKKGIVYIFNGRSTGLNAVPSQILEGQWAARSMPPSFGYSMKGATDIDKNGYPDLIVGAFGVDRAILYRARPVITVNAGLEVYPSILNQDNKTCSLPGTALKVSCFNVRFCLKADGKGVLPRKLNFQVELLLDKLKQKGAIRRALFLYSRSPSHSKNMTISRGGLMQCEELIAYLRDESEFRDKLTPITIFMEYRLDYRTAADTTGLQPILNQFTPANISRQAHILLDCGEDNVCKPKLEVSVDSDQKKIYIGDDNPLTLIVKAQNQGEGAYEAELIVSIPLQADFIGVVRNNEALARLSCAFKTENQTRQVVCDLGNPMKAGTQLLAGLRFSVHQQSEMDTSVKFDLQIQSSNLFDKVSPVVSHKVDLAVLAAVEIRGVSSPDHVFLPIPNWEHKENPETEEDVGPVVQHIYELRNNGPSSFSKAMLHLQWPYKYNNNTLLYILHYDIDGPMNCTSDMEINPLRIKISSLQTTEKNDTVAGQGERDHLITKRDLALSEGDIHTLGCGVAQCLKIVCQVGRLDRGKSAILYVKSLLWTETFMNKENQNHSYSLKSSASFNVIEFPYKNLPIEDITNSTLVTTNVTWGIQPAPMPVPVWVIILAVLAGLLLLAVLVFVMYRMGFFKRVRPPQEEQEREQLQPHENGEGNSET

How the values were obtained:
[1] = molecular target: αvβ3 integrin (human (endogenous in MDA-MB-231 and HUVEC)) (UniProt P06756)
[2] = molecular target: αvβ3 integrin (human (endogenous in MDA-MB-231 and HUVEC)) (UniProt P06756); remark: listed apart in the source

DisBa-01 (natural protein)
IC50 of inhibition of MDA-MB-231 cell migration, Boyden chamber, hypoxia [1]: 19.9 nM
IC50 of inhibition of MDA-MB-231 cell migration, Boyden chamber, normoxia [1]: 13.4 nM
IC50 of inhibition of MDA-MB-231 transendothelial migration through a HUVEC monolayer, hypoxia [2]: 5.22 nM
IC50 of inhibition of MDA-MB-231 transendothelial migration through a HUVEC monolayer, normoxia [2]: 5.24 nM
